From ChEMBL document CHEMBL5715955, “Inhibition of Human Class I vs Class III Phosphatidylinositol 3'-Kinases” (Biochemistry, 2017)

By UniProt entry, the sequences of proteins in these tests, tags left out. Where a name states a change or a piece, a line headed by the entry shows the natural chain unless it says otherwise.
UniProt P48736: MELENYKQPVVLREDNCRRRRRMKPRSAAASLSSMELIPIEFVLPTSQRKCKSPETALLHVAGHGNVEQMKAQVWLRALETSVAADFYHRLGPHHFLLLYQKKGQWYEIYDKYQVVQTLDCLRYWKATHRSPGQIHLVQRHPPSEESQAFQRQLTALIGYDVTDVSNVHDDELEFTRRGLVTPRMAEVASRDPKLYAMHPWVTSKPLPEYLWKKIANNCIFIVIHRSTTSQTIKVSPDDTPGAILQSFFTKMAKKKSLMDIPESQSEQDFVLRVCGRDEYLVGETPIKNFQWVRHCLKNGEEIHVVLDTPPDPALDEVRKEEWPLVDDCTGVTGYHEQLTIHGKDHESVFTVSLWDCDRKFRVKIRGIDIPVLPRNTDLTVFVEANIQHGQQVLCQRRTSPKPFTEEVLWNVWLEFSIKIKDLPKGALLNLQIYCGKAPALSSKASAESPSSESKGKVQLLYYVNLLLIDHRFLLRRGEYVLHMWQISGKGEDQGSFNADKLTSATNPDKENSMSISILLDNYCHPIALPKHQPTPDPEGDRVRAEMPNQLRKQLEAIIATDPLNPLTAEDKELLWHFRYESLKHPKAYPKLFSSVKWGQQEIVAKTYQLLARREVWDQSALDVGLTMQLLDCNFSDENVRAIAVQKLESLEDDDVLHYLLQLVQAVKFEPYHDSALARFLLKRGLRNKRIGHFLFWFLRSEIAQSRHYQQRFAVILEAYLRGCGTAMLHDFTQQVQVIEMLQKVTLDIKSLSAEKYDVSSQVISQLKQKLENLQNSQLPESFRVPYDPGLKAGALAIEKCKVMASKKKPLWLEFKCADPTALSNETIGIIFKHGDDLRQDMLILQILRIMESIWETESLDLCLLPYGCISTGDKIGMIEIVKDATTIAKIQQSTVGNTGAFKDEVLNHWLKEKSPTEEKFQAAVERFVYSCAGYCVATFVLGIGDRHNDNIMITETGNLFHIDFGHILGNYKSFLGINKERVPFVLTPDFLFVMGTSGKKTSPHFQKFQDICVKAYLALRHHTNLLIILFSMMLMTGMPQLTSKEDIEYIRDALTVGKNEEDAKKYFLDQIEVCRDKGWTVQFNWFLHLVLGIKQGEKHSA

Target: Phosphatidylinositol 4,5-bisphosphate 3-kinase catalytic subunit gamma isoform (Homo sapiens, UniProt P48736)
Assay: Inhibition of PI3K gamma (unknown origin) by PIP3 production detection based fluorescence assay

With `CC(C)n1nc(-c2ccc3oc(N)nc3c2)c2c(N)ncnc21` [SAPANISERTIB] as the molecule, how does the EC50 read?
Its EC50 is 221 nM.
